Bioassay records as filed in PubChem BioAssay.
Hits are enriched below; roughly 3.7% of the tested compounds scored in any of these assays.
A549 tox: counter-screen for Nrf2 inhibitors: cytotoxicity in A549 cells; A549 ARE-Fluc cells, CellTiter-Fluor viability, 18-24 h; Potency, µM (series often up to 46 µM), most hits filed as inhibitors; hit rate 0.16% among 390,000
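Cytotoxicity counterscreen: CellTiter-Fluor fluorescence was measured in A549 ARE_Fluc cells after 18-24 h of compound exposure in a concentration series. The subsequent BugLite luminescent read reports ARE-luciferase activity.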
Nrf2 ARE act: activates Nrf2 signaling; AID 624171; AREc32 ARE-luciferase reporter (MCF7-derived line), luminescence, 24 h; Potency, µM (highest dose often 46.1 µM), hits mostly activators; hit rate 0.31% among 410,000; note: nearly all actives have a fitted effect of over 65% in size
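Quantitative high-throughput format: AREc32 reporter cells, 1000 per well, received compound by pin transfer and were incubated 24 hr at 37 deg C, 5% CO2, before Steady-Glo luminescence detection.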
miR-21 reporter: raises the signal of a miR-21 reporter; Potency, µM (doses to about 38.3 µM); HeLa miR-21 FLuc reporter, luciferase, 48 h; AID 2288; 340,000 tested, under 10 active; active = well fitted rising curve with a large enough effect; inconclusive = small, poorly fitted or top-dose-only effect; inactive = no such curve, though single readings can be large or run the other way;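 further: miR-21 action dims this reporter so a rising signal means less miR-21 action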
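Compounds were titrated across several concentrations (up to approximately 40 uM) and incubated 48 hours with HeLa miR-21-FLuc reporter cells (miR-21 target sequence downstream of FLuc, endogenous miR-21). Readout was firefly luciferase luminescence after lytic detection reagent.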
ClpP mod: qHTS Assay for Activators of ClpP; purified B. subtilis ClpP, FRET peptide cleavage, 20 min; Potency, µM (series often up to 57.5 µM); hit rate 1.9% among 340,000; AID 651965, 2013; active = well fitted falling curve with a large enough effect; inconclusive = small, poorly fitted or top-dose-only effect; inactive = no such curve, though single readings can be large or run the other way; note: the source files actives as falling curves though it sought activators and does not explain the sign; nearly all actives have a fitted effect of over 65% in size
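Purified B. subtilis ClpP, 10 microg/mL final in Tris/HCl pH8 with KCl, BSA, glycerol and Tween-20, cleaved an Abz/nitrotyrosine-quenched decapeptide. Fluorescence (ex 320, em 430) was read at 0 and 20 min at room temperature. Delta was normalized to 5.8 microM ADEP and DMSO/no-enzyme controls.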
IL-2 act: IL-2 activation | IL-2 activation reporter assay, cell-based qHTS; stimulated with anti-CD3/CD4/CD28 beads; in transgenic mouse T cells | activation, % (series mostly up to about 46 µM) | hit rate 0.065% among 360,000; in the data active = activation above about 50%; inconclusive = mostly about 30% to 49%
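Quantitative HTS in unstimulated transgenic mouse T cells, with memory T cells as non-tolerant control and PMA/ionomycin as tolerance-bypass control. Compound pretreatment lasted 60 minutes before 18 h bead stimulation; EGFP/DsRed fluorescence read.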
Nrf2 inh: inhibitors of Nrf2 signaling; Potency, µM (doses to about 46 µM), actives largely listed as inhibitors; hit rate 2.1% among 360,000; A549 ARE-Fluc reporter, luciferase luminescence, 18-24 h; note: nearly all actives have a fitted effect of over 60% in size
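Nrf2 activity is the BugLite luminescence, read 15 min after reagent at room temperature, following CellTiter-Fluor cytotoxicity readout (30 min, 37C). Compound titrations were applied for 18-24 h to 5000 A549 ARE_Fluc cells/well in 5% FBS OPTI-MEM.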
A number is an active result; 0 = inactive; ? = inconclusive; - = no result given. Unless noted, calls come from the whole dose curve; as a rule, active = well fitted curve in the direction sought with a large enough effect; inconclusive = small, poorly fitted or top-dose-only effect, or another doubt; inactive = no such curve, though single readings can be large; an effect the other way counts as inactive or inconclusive.

SMILES | A549 tox | Nrf2 ARE act | miR-21 reporter | ClpP mod | IL-2 act | Nrf2 inh
CCCCCCn1c(N2CCN(c3ccccc3)CC2)nc2c1c(=O)n(C)c(=O)n2C | ? | 0 | 0 | 0 | 0 | 23.1µM
CCOCCn1c(CN2CCN(c3ccc(F)cc3)CC2)nc2c1c(=O)n(C)c(=O)n2C | 0 | 0 | 0 | 0 | 0 | ?
Cc1ccc(C)c(NC(=O)CSc2nc(=O)n(CCN(C)C)c3c2CCC3)c1 | 0 | 0 | 0 | 0 | - | -
COC(=O)c1scc(-c2ccc(C)cc2)c1S(=O)(=O)Nc1ccc(OC(F)(F)F)cc1 | 0 | 0 | 0 | 0 | - | 0
C=C(C)Cn1c(N2CCN(c3ccc(OC)cc3)CC2)nc2c1c(=O)n(C)c(=O)n2C | 0 | 0 | 0 | 0 | 0 | 23.1µM
Cc1ccc(Cn2c(CN(C)Cc3ccccc3)nc3c2c(=O)n(C)c(=O)n3C)cc1 | - | 0 | 0 | 0 | 0 | 0
CCCCn1c(SCc2nnc(-c3ccccc3)o2)nc2c1c(=O)n(C)c(=O)n2C | 0 | 0 | 0 | 0 | 0 | 10.3µM
COc1ccc(N2CCN(c3nc4c(c(=O)n(C)c(=O)n4C)n3Cc3ccccc3)CC2)cc1 | 0 | 0 | 0 | 0 | 0 | ?
CN(Cc1ccccc1)Cc1nc2c(c(=O)n(C)c(=O)n2C)n1Cc1ccc(Cl)cc1 | - | 0 | 0 | 0 | 0 | 14.6µM
COc1cccc(NC(=O)C2CCN(S(=O)(=O)c3cccc4nonc34)CC2)c1 | 0 | 0 | 0 | 0 | - | 0
COc1ccc(NC(=O)Cc2csc(COc3cccc(C)c3)n2)cc1OC | 0 | 0 | 0 | 0 | - | 23.1µM
Cc1cccc(NC(=O)Cc2csc(COc3cccc(C)c3)n2)c1 | 0 | 0 | 0 | 0 | - | 0
C[C@H](NC(=O)c1[nH]cnc1C(=O)Nc1ccc(Cl)cc1)c1ccccc1 | 0 | 0 | - | 0 | 0 | 18.4µM
C[C@@H](NC(=O)c1[nH]cnc1C(=O)Nc1ccc(Cl)cc1)c1ccccc1 | 18.4µM | 0 | - | 0 | 0 | 5.8µM
C[C@@H](NC(=O)c1[nH]cnc1C(=O)Nc1ccccc1)c1ccccc1 | 0 | 0 | - | 0 | 0 | 23.1µM
CC(C)(C)OC(=O)NCCCCCNC(=O)c1[nH]cnc1C(=O)Nc1ccc(Cl)cc1 | ? | 0 | - | 0 | 0 | 16.4µM
Cc1ccc(NC(=O)c2nc[nH]c2C(=O)N[C@@H](C)c2ccccc2)cc1 | 0 | 0 | 0 | 0 | 0 | ?
C[C@H](NC(=O)c1[nH]cnc1C(=O)Nc1cccc(Cl)c1)c1ccccc1 | 0 | 0 | - | 0 | 0 | ?
CCCCCCCCCC[n+]1ccc(/C=C/c2ccc(N(C)C)cc2)c2ccccc21 | - | - | - | 0 | - | -
CCOc1ccc(N2CC(NC(=O)c3ccc4c(c3)OCO4)CC2=O)cc1 (stereo not drawn) | 0 | 0 | 0 | 0 | - | -
CCN(CC)S(=O)(=O)c1ccc2c(c1)N(CC(=O)NCCCN1CCN(c3cc(C)ccc3C)CC1)C(=O)CO2 | 0 | 0 | 0 | 0 | - | -
O=C(C[n+]1cccc(Br)c1)c1ccc(F)cc1 | - | - | - | 0 | - | -
CC(C)Oc1ccc(CNC(=O)c2cccc(NC(=O)c3nsc4ccccc34)c2)cc1 | 0 | 0 | 0 | 0 | - | -
CCOC(=O)c1c(NC(=O)c2cc(=O)c3c(C)cc(C)cc3o2)sc2c1CCC2 | 0 | 0 | 0 | 0 | - | 0
O=S(=O)(/C=C/c1ccccc1)Oc1ccccc1 | 0 | 12.6µM | 0 | 0 | 0 | 0
SMILES | A549 tox | Nrf2 ARE act | miR-21 reporter | ClpP mod | IL-2 act | Nrf2 inh
CNS(=O)(=O)/C=C/c1ccccc1 | 0 | 0 | 0 | 0 | 0 | 0
Fc1cccc(Cl)c1Cn1nnc2c(NCc3ccncc3)ncnc21 | 0 | 0 | 0 | 0 | 0 | 23.1µM
Fc1cccc(Cl)c1Cn1nnc2c(NCc3ccccn3)ncnc21 | 0 | 0 | 0 | 0 | 0 | 0
Cc1c(C)n(Cc2ccccc2)c2ccc(C(=O)NCC(C)c3ccccc3)cc12 (stereo not drawn) | 0 | 0 | 0 | 20µM | - | 0
CCOc1ccc(CNC(=O)c2ccc3c(c2)c(C)c(C)n3Cc2ccc(Cl)cc2)cc1 | 0 | 0 | 0 | 15.8µM | - | ?
CCn1c(C)c(C)c2cc(C(=O)NCc3ccc(OC(C)C)cc3)ccc21 | 0 | 0 | 0 | 0 | - | ?
